Results published in patent US6664406B1, “Nervonic acid derivatives, their preparation and use” (Croda International PLC, priority 1999, dated 2003).
Read-outs that look alike come from different tables or passages of the source. Marks after values point to notes of the source that are not given here.

System: experimental allergic encephalomyelitis (EAE) in the Lewis rat
Settings: for effect on the course of neurological EAE: compared to undosed and vehicle; for Number diseased/total: 5 days prior to inoculation and 25 days PI; for Number diseased/total / Mean day of final symptom loss (±SD) / Mean day of symptom onset (±SD) / Mean duration of symptoms (day ± SD) / Number of dead/total: n=7
[1] = Lewis rat, 1000 mg/kg body weight/day
[2] = Lewis rat, neat oil oral 1000 mg/kg body weight/day
[3] = rat, in vivo, po, 1000 mg/kg/day

Compound	effect on the course of neurological EAE [1]	FT (flaccid tail): Number of animals showing symptoms/total [2]	HLH (hind limb hypotonia): Number of animals showing symptoms/total [2]	Symptom onset, loss of signs and disease duration compared to control groups [2]	Number diseased/total [2]	Mean day of final symptom loss (±SD) [2] [days]	Mean day of symptom onset (±SD) [2] [days]	Mean duration of symptoms (day ± SD) [2] [days]	Number of dead/total [2]	CHLP (complete hind limb paralysis): Number of animals showing symptoms/total [3]	PHLP (partial hind limb paralysis): Number of animals showing symptoms/total [3]	animals displaying initial disease symptoms [1]	mean cumulative neurological scores (Lewis rat, 1000 mg/kg body weight/day, beginning 14 days PI)	PHLP (partial hind limb paralysis): Number of animals showing symptoms/total [2]
CCCCC/C=C\C/C=C\C/C=C\CCCCC(=O)OCCCOC(=O)CCCC/C=C\C/C=C\C/C=C\CCCCC [GLA:GLA, 1,3-Di(z,z,z-6,9,12-Octadecatrienoyloxy)propane, reference compound]	did not alter the course of neurological EAE	7/7	7/7	not significantly different compared to control groups	7/7	18.0 ± 0.7	11.9 ± 0.9	6.1 ± 0.8	2/7	3/7	4/7			
CCCCCCCC/C=C\CCCCCCCCCCCCCC(=O)OCCCOC(=O)CCCCCCCCCCCCC/C=C\CCCCCCCC [NA:NA, 1,3-di-(z-15-tetracosenoyloxy)propane]	clearly reduced the overall intensity of disease	7/7	4/7	not significantly different compared to control groups	7/7	17.6 ± 1.6	12.4 ± 1.5	5.2 ± 1.6	0/7	0/7		4/7	consistently lower than undosed and vehicle treatments	0/7 #
